From US20250270394A1, “CYCLODEXTRIN INCORPORATED SILICONE MATERIALS AND THEIR USE AS CARRIERS FOR ACTIVES” (WACKER CHEMIE AG, priority 2022, published 2025)

Procedure: Such a homogneous mixture can also be formed by using a magnetic stirrer, overhead stirrer, Speedmixer™ or similar mixing techniques.
Above experiment was repeated with a native γ-CD CAVAMAX® W8, which was not modified with silylation.
Silylated β-cyclodextrin CH77 with low number of silyl groups (7.95 TMS and 3.23 VDMS groups on average) was evaluated to check the solubility in DM 5 at 10 wt. %.

- solubility in DM 5 (appearance of mixture): clear, homogeneous, transparent solution
Substance: trimethylsilyl-vinyldimethylsilyl γ-cyclodextrin [CH60]
